From patent publication US20050277586A1, “Peptide chemically modified with polyethylene glycol” (priority 2002, published 2005)

Experiment: Toxicity of the peptide, tail vein administration
Type: in vivo
Conditions: female BALB/c mouse, 5 mg/kg
Protocol: The peptide used in the present invention was administered to a mouse from its tail vein to thereby evaluate its toxicity. The mouse used was a female BALB/c mouse of 5 week old, and the peptide was used at a dose of 5 mg/kg.

## CC(C)C[C@H](NC(=O)[C@H](C)NC(=O)[C@H](CC(C)C)NC(=O)[C@H](CCC(N)=O)NC(=O)[C@H](Cc1c[nH]cn1)NC(=O)[C@@H](NC(=O)[C@H](Cc1c[nH]c2ccccc12)NC(=O)[C@H](CO)NC(=O)[C@H](CCCNC(=N)N)NC(=O)[C@@H]1CCCN1C(=O)[C@H](Cc1c[nH]cn1)NC(=O)[C@H](CC(C)C)NC(=O)[C@H](CCCNC(=N)N)NC(=O)[C@H](CC(C)C)NC(=O)[C@H](Cc1ccc(O)cc1)NC(=O)[C@H](CCCNC(=N)N)NC(=O)[C@H](CC(C)C)NC(=O)[C@H](CCCNC(=N)N)NC(=O)[C@H](CC(C)C)NC(=O)[C@H](C)NC(=O)[C@H](CC(C)C)NC(=O)[C@H](CCC(N)=O)NC(=O)[C@H](Cc1c[nH]cn1)NC(=O)[C@@H](NC(=O)[C@H](Cc1c[nH]c2ccccc12)NC(=O)[C@H](CO)NC(=O)[C@H](CCCNC(=N)N)NC(=O)[C@@H]1CCCN1C(=O)[C@H](Cc1c[nH]cn1)NC(=O)[C@H](CC(C)C)NC(=O)[C@H](CCCNC(=N)N)NC(=O)[C@H](CC(C)C)NC(=O)[C@H](Cc1ccc(O)cc1)NC(=O)[C@H](CCCNC(=N)N)NC(=O)[C@@H](N)[C@@H](C)O)C(C)C)C(C)C)C(=O)N[C@@H](CCCNC(=N)N)C(=O)N[C@@H](CO)C(=O)O [SEQ ID NO: 16]
  Toxicity after tail vein administration: no significant effects
